Assay [1] concerns the target T1, CHC 1–574 (Homo sapiens, UniProt Q00610).
T1 construct: GST (cleaved yes); made in house
T1 sequence (Q00610 1-574): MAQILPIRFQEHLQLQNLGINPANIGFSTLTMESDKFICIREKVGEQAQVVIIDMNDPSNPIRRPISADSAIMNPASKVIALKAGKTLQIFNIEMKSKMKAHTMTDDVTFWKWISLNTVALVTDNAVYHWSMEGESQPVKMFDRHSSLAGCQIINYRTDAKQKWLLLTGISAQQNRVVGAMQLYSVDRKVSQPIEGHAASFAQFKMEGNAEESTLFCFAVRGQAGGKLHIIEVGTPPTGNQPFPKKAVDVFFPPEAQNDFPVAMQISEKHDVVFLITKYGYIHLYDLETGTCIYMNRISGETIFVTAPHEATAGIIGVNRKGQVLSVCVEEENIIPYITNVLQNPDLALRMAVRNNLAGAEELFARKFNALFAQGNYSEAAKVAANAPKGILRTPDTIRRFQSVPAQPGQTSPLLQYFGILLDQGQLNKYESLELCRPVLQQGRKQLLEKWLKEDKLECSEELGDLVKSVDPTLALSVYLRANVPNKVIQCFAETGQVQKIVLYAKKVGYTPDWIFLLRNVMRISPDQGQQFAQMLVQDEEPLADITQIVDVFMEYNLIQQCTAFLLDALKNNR
The assay is described as follows: FP binding assay, CHC 1–574. The following applies: 50 nM FAM peptide, pH 7.5, 25°C; for reduction of affinity for CHC 1–574 compared to WT: in words; for affinity for CHC 1–574 (in words): effect of S558 phosphorylation or phosphomimetic. On the procedure:
For CHC‐TACC3 FP assays, CHC proteins were serially diluted in FP buffer (20 mM HEPES–NaOH pH 7.5, 200 mM NaCl, 5 mM DTT). FAM‐labelled TACC3 peptide was added to a final concentration of 50 nM and incubated for 30 min at room temperature to allow binding to reach equilibrium. Fluorescence polarization measurements were made using a Victor X5 plate reader (Perkin Elmer) at 25°C with excitation at 490 nm and emission at 535 nm. Data analysis was performed as described above.

Assay [2] has as its target T2, CHC 1–574 F492Y (Homo sapiens, UniProt Q00610, F492Y).
T2 construct: GST (cleaved yes); made in house
T2 sequence (Q00610 1-574 F492Y): T1 sequence (Q00610 1-574) with F492Y
The assay is described as follows: FP binding assay, CHC 1–574 F492Y. Particulars: CHC 1–574 F492Y relative to WT CHC. From the text:
Next, we examined whether the CHC‐TACC3 interaction could be disrupted by mutations on the surface of CHC, based on analysis of the crystal structure (Fig 6A). For example, R481 interacts with both TACC3 Y560 and TACC3 D564 and was mutated to glutamic acid to disrupt both interactions. We explored the opportunities for disruption of specific contacts with the side chain of TACC3 F563: L480 nestles against the Cβ atom of TACC3 F563 and was mutated to aspartic acid alone or in combination with a L476D mutation, which disrupts the hydrophobic surface contacting P565; the double mutation L503A/Y504A removes the pocket into which the phenyl group of F563 binds; the subtle F492Y mutation introduces an –OH group that is predicted to clash with the Cβ atom of TACC3 F563. The mutant CHC proteins were expressed and purified as the WT protein, and binding affinities to the FAM‐labelled pTACC3^CID were measured using the FP assay (Fig 6B). […] The four other mutant CHC proteins were measured to have K ds for pTACC3^CID of over 300 μM. […]
For CHC‐TACC3 FP assays, CHC proteins were serially diluted in FP buffer (20 mM HEPES–NaOH pH 7.5, 200 mM NaCl, 5 mM DTT). […] Fluorescence polarization measurements were made using a Victor X5 plate reader (Perkin Elmer) at 25°C with excitation at 490 nm and emission at 535 nm. […]

Positions count from the first letter of the chain named.

As to `CC(C)C[C@H](NC(=O)[C@H](C)NC(=O)[C@H](CO)NC(=O)[C@H](CCC(=O)O)NC(=O)[C@H](CCCCN)NC(=O)[C@H](Cc1ccccc1)NC(=O)c1ccc2c(c1)C(=O)OC21c2ccc(O)cc2Oc2cc(O)ccc21)C(=O)N[C@@H](CCCNC(=N)N)C(=O)N[C@@H](CCCCN)C(=O)N[C@@H](CCC(N)=O)C(=O)N[C@@H](COP(=O)(O)O)C(=O)N[C@@H](CC(C)C)C(=O)N[C@@H](Cc1ccc(O)cc1)C(=O)N[C@@H](CC(C)C)C(=O)N[C@@H](CCCCN)C(=O)N[C@@H](C)C(=O)N[C@@H](CC(=O)O)C(=O)N1CCC[C@H]1C(=O)N[C@@H](CC(C)C)C(=O)N[C@@H](CC(C)C)C(=O)N[C@@H](CCCNC(=N)N)C(=O)N[C@@H](CC(=O)O)C(=O)N[C@@H](CO)C(=O)O` [F563A], the “reduction of affinity for CHC 1–574 compared to WT” value (from here on “reduction of affinity … to WT”) in assay [1] (mutant vs WT phospho-TACC3^CID) is “at least fourfold”. Consider `CC(C)C[C@H](NC(=O)[C@H](C)NC(=O)[C@H](CO)NC(=O)[C@H](CCC(=O)O)NC(=O)[C@H](CCCCN)NC(=O)[C@H](Cc1ccccc1)NC(=O)c1ccc2c(c1)C(=O)OC21c2ccc(O)cc2Oc2cc(O)ccc21)C(=O)N[C@@H](CCCNC(=N)N)C(=O)N[C@@H](CCCCN)C(=O)N[C@@H](CCC(N)=O)C(=O)N[C@@H](COP(=O)(O)O)C(=O)N[C@@H](CC(C)C)C(=O)N[C@@H](Cc1ccc(O)cc1)C(=O)N[C@@H](CC(C)C)C(=O)N[C@@H](CCCCN)C(=O)N[C@@H](Cc1ccccc1)C(=O)N[C@@H](CC(=O)O)C(=O)N1CCC[C@H]1C(=O)N[C@@H](CC(C)C)C(=O)N[C@@H](CC(C)C)C(=O)N[C@@H](CCCNC(=N)N)C(=O)N[C@@H](CC(=O)O)C(=O)N[C@@H](CO)C(=O)O` [FAM‐phospho‐TACC3^CID], for which the “affinity for CHC 1–574 (in words)” value in assay [1] is given as “enhanced affinity fourfold”. Moreover, the “increase in K d” value in assay [2] is given as > 6 fold.

Regarding `CC(C)C[C@H](NC(=O)[C@H](C)NC(=O)[C@H](CO)NC(=O)[C@H](CCC(=O)O)NC(=O)[C@H](CCCCN)NC(=O)[C@H](Cc1ccccc1)NC(=O)c1ccc2c(c1)C(=O)OC21c2ccc(O)cc2Oc2cc(O)ccc21)C(=O)N[C@@H](CCCNC(=N)N)C(=O)N[C@@H](CCCCN)C(=O)N[C@@H](CCC(N)=O)C(=O)N[C@@H](COP(=O)(O)O)C(=O)N[C@@H](CC(C)C)C(=O)N[C@@H](Cc1ccc(O)cc1)C(=O)N[C@@H](CC(C)C)C(=O)N[C@@H](C)C(=O)N[C@@H](Cc1ccccc1)C(=O)N[C@@H](CC(=O)O)C(=O)N1CCC[C@H]1C(=O)N[C@@H](CC(C)C)C(=O)N[C@@H](CC(C)C)C(=O)N[C@@H](CCCNC(=N)N)C(=O)N[C@@H](CC(=O)O)C(=O)N[C@@H](CO)C(=O)O` [K562A], the “reduction of affinity … to WT” value in assay [1] (mutant vs WT phospho-TACC3^CID) is “negligible”. The same measure, in the same setting: the entry for `CC(C)C[C@H](NC(=O)[C@H](C)NC(=O)[C@H](CO)NC(=O)[C@H](CCC(=O)O)NC(=O)[C@H](CCCCN)NC(=O)[C@H](Cc1ccccc1)NC(=O)c1ccc2c(c1)C(=O)OC21c2ccc(O)cc2Oc2cc(O)ccc21)C(=O)N[C@@H](CCCNC(=N)N)C(=O)N[C@@H](CCCCN)C(=O)N[C@@H](CCC(N)=O)C(=O)N[C@@H](COP(=O)(O)O)C(=O)N[C@@H](C)C(=O)N[C@@H](Cc1ccc(O)cc1)C(=O)N[C@@H](CC(C)C)C(=O)N[C@@H](CCCCN)C(=O)N[C@@H](Cc1ccccc1)C(=O)N[C@@H](CC(=O)O)C(=O)N1CCC[C@H]1C(=O)N[C@@H](CC(C)C)C(=O)N[C@@H](CC(C)C)C(=O)N[C@@H](CCCNC(=N)N)C(=O)N[C@@H](CC(=O)O)C(=O)N[C@@H](CO)C(=O)O` [L559A] is “at least fourfold”.

For the compound `CC(C)C[C@H](NC(=O)[C@H](C)NC(=O)[C@H](CO)NC(=O)[C@H](CCC(=O)O)NC(=O)[C@H](CCCCN)NC(=O)[C@H](Cc1ccccc1)NC(=O)c1ccc2c(c1)C(=O)OC21c2ccc(O)cc2Oc2cc(O)ccc21)C(=O)N[C@@H](C)C(=O)N[C@@H](CCCCN)C(=O)N[C@@H](CCC(N)=O)C(=O)N[C@@H](COP(=O)(O)O)C(=O)N[C@@H](CC(C)C)C(=O)N[C@@H](Cc1ccc(O)cc1)C(=O)N[C@@H](CC(C)C)C(=O)N[C@@H](CCCCN)C(=O)N[C@@H](Cc1ccccc1)C(=O)N[C@@H](CC(=O)O)C(=O)N1CCC[C@H]1C(=O)N[C@@H](CC(C)C)C(=O)N[C@@H](CC(C)C)C(=O)N[C@@H](CCCNC(=N)N)C(=O)N[C@@H](CC(=O)O)C(=O)N[C@@H](CO)C(=O)O` [R555A], the “factor of reduction of affinity for CHC 1–574” value in assay [1] (mutant vs WT phospho-TACC3^CID) is listed as 4–5 factor. Regarding `CC(C)C[C@H](NC(=O)[C@H](C)NC(=O)[C@H](CO)NC(=O)[C@H](CCC(=O)O)NC(=O)[C@H](CCCCN)NC(=O)[C@H](Cc1ccccc1)NC(=O)c1ccc2c(c1)C(=O)OC21c2ccc(O)cc2Oc2cc(O)ccc21)C(=O)N[C@@H](CCCNC(=N)N)C(=O)N[C@@H](CCCCN)C(=O)N[C@@H](CCC(N)=O)C(=O)N[C@@H](CCC(=O)O)C(=O)N[C@@H](CC(C)C)C(=O)N[C@@H](Cc1ccc(O)cc1)C(=O)N[C@@H](CC(C)C)C(=O)N[C@@H](CCCCN)C(=O)N[C@@H](Cc1ccccc1)C(=O)N[C@@H](CC(=O)O)C(=O)N1CCC[C@H]1C(=O)N[C@@H](CC(C)C)C(=O)N[C@@H](CC(C)C)C(=O)N[C@@H](CCCNC(=N)N)C(=O)N[C@@H](CC(=O)O)C(=O)N[C@@H](CO)C(=O)O` [S558E], the “affinity for CHC 1–574 (in words)” value in assay [1] is recorded as “did not increase affinity”. Turning to `CC(C)C[C@H](NC(=O)[C@H](C)NC(=O)[C@H](CO)NC(=O)[C@H](CCC(=O)O)NC(=O)[C@H](CCCCN)NC(=O)[C@H](Cc1ccccc1)NC(=O)c1ccc2c(c1)C(=O)OC21c2ccc(O)cc2Oc2cc(O)ccc21)C(=O)N[C@@H](CCCNC(=N)N)C(=O)N[C@@H](CCCCN)C(=O)N[C@@H](CCC(N)=O)C(=O)N[C@@H](COP(=O)(O)O)C(=O)N[C@@H](CC(C)C)C(=O)N[C@@H](C)C(=O)N[C@@H](CC(C)C)C(=O)N[C@@H](CCCCN)C(=O)N[C@@H](Cc1ccccc1)C(=O)N[C@@H](CC(=O)O)C(=O)N1CCC[C@H]1C(=O)N[C@@H](CC(C)C)C(=O)N[C@@H](CC(C)C)C(=O)N[C@@H](CCCNC(=N)N)C(=O)N[C@@H](CC(=O)O)C(=O)N[C@@H](CO)C(=O)O` [Y560A], the “reduction of affinity … to WT” value in assay [1] (mutant vs WT phospho-TACC3^CID) was “at least fourfold”.
